This note sets out measurements from PMC11082957.

Series [1] has as its system P37840. In words: SDS-PAGE and Western blot of aggregates (SDS stability); ONE-induced aggregates, 200 ng/lane, boiled at 95 °C for 5 min, 12% gel; species above 17 kD against the monomer band. The settings on record: other: SDS-PAGE and Western blot of aggregates (SDS stability).
Series [2] relates to P37840. In words: SDS-PAGE and Western blot of aggregates (SDS stability); agitation-induced preformed fibrils, 200 ng/lane, boiled at 95 °C for 5 min, 12% gel; species above 17 kD against the monomer band. The settings on record: other: SDS-PAGE and Western blot of aggregates (SDS stability).
Series [3] relates to P37840. Briefly: thioflavin T fluorescence + transmission electron microscopy; self-association into preformed fibrils induced by agitation: 100 µL monomer (4 mg/mL), 37 °C, 1000 rpm, 7 days; ThT read at 8 µM protein in 20 mM Tris pH 7.4, 0.15 M NaCl, 19 µM ThT, 37 °C; time course 1, 3, 7 days. The note with it: other: thioflavin T fluorescence + transmission electron microscopy.

Series [4] has as its system P37840. Briefly: thioflavin T fluorescence + transmission electron microscopy; self-association into aggregates induced by ONE: 1.5 µL ONE (10 mg/mL) added to 50 µL monomer (2 mg/mL), 18 h at 37 °C, horizontal shaker; ThT read at 8 µM protein in 20 mM Tris pH 7.4, 0.15 M NaCl, 19 µM ThT, 37 °C; time course …. The note with it: other: thioflavin T fluorescence + transmission electron microscopy.

“recombinant human α-synuclein (wild type, full length)”: the SDS-Stability of aggregates (ratio to monomeric protein) (ratio to monomeric protein) in the series with P37840 [1] is 13.1; in the series on P37840 [2], 2.33.

As for “recombinant human α-synuclein phosphorylated at Ser129”, the SDS-Stability of aggregates (ratio to monomeric protein) (ratio to monomeric protein) in the series on P37840 [1] is 7.14; in the series on P37840 [2], 3.2. In addition, the “p-α-syn aggregate speed (ratio to α-syn)” value in the series with P37840 [3] is on record as 1.497 ±0.111 (7Days); in the series on P37840 [4], 1.409 ± 0.016 (18 h).
